These are literature values, as cited in article PMC3094488 (European journal of pharmacology, 2011).

Amino acid sequences for entries named in this document (tags omitted).
UniProt P47746, whole entry: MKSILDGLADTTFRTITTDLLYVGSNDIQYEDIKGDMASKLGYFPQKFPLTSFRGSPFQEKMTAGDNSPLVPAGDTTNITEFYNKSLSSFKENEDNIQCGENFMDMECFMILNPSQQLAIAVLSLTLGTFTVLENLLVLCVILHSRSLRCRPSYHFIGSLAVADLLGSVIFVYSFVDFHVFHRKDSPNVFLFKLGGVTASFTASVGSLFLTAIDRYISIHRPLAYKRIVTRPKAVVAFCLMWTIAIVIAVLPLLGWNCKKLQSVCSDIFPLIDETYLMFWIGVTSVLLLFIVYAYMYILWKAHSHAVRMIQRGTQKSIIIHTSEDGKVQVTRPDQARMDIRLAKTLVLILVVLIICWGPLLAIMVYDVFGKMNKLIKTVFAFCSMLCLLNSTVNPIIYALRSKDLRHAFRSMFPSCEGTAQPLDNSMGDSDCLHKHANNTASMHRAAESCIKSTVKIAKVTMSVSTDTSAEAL

For this data set, the target named is CB1 receptors (Mus musculus, UniProt P47746). As to conditions: ref Atwood et al., 2010; Straiker and Mackie, 2005; cited from earlier work.

Consider `CCCCCc1cc(O)c2c(c1)OC(C)(C)[C@@H]1CCC(C)=C[C@@H]21` [THC, Δ^9-tetrahydrocannabinol], for which the “effect on EPSCs” value is “no inhibition of EPSCs”.
